# Source: US9023878B2, “2-iminobiotin formulations and uses thereof” (Neurophyxia B.V., priority 2010, dated 2015)
# Experiments:
# [1] = Excerpt: Necropsy took place approximately one hour after the second injection. Blood and brain samples were collected for both the mother and fetuses.
# [2] = Novel excipients (Cremophor EL, Solutol HS 15): 2-IB content of formulations at t=0 and after 48 hours; details: Solutol HS 15 formulation
smiles,measurement,setting,value
"N=C1N[C@H]2[C@H](CS[C@H]2CCCCC(=O)O)N1 [Formulation 2-IB, 2-iminobiotin]","average brain to plasma ratio, maternal animals",[1]; 55 mg/kg sc,0.03
same,"plasma concentration, maternal animals relative to their fetuses",[1]; 55 mg/kg sc,3-7 times
same,"average brain to plasma ratio, female fetuses",[1]; maternal dose 55 mg/kg sc,0.20
same,"average brain to plasma ratio, fetuses",[1]; maternal dose 55 mg/kg sc,0.20
same,"average brain to plasma ratio, male fetuses",[1]; maternal dose 55 mg/kg sc,0.19
same,viability of fetuses,[1]; maternal dose 55 mg/kg sc,all fetuses were viable
same,Concentration t = 48 h relative to t = 0,"[2]; nominal 5.0 mg/ml, pH 2.4",85%
same,Concentration t = 48 h relative to t = 0,"[2]; nominal 5.0 mg/ml, pH 2.8",100%
same,Concentration t = 48 h relative to t = 0,"[2]; nominal 5.0 mg/ml, pH 3.0",105%
same,Concentration t = 48 h relative to t = 0,"[2]; nominal 5.0 mg/ml, pH 3.5",95%
same,Concentration t = 48 h relative to t = 0,"[2]; nominal 5.0 mg/ml, pH 3.6",87%
same,Concentration t = 48 h relative to t = 0,"[2]; nominal 5.0 mg/ml, pH 3.8",51%
same,Concentration t = 48 h relative to t = 0,"[2]; nominal 5.0 mg/ml, pH 10.2",0%
same,Concentration t = 48 h relative to t = 0,"[2]; nominal 10 mg/ml, pH 3.0",95%
same,Concentration t = 48 h relative to t = 0,"[2]; nominal 10 mg/ml, pH 3.5",97%
same,Concentration t = 48 h relative to t = 0,"[2]; nominal 20 mg/ml, pH 3.0",101%
same,Concentration t = 48 h relative to t = 0,"[2]; nominal 20 mg/ml, pH 3.5",90%
